The text below walks through data of ChEMBL document CHEMBL1145099, “Aloisines, a new family of CDK/GSK-3 inhibitors. SAR study, crystal structure in complex with CDK2, enzyme selectivity, and cellular effects” (J Med Chem, 2003).

Amino acid sequences for entries named in this document (tags omitted). A change or cut given only in a name is not applied to a line headed by its entry.
UniProt P49840: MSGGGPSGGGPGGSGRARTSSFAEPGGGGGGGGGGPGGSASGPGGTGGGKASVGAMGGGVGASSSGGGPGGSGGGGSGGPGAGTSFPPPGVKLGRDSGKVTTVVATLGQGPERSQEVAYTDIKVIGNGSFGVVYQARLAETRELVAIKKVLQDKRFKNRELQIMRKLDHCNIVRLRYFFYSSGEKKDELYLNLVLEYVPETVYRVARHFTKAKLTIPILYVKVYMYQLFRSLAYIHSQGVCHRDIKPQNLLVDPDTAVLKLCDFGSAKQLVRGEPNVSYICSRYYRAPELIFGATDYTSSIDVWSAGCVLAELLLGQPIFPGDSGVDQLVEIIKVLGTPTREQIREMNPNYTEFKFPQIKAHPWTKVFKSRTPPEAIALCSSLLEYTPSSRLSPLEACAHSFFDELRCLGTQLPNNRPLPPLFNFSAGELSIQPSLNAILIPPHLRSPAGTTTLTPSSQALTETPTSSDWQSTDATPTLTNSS

This test deals with Glycogen synthase kinase-3 alpha (Homo sapiens, UniProt P49840).

A word on the IC50: it is the midpoint of a concentration-inhibition curve. A lower IC50 goes with higher potency.

On to `CCCCc1c(-c2ccc(O)cc2)[nH]c2nccnc12` [ALOISINE A], for which half-maximal inhibition (IC50) required 500 nM. This lies in the sub-micromolar range.
